Test results: patent US11028064B2, “Tricyclic heterocyclic derivatives and uses thereof” (AUCKLAND UNISERVICES LIMITED, priority 2016, dated 2021)

Chains of the proteins cited; added tags and fusions are not shown. Residues count along the entry.
UniProt P35968, 20-1356: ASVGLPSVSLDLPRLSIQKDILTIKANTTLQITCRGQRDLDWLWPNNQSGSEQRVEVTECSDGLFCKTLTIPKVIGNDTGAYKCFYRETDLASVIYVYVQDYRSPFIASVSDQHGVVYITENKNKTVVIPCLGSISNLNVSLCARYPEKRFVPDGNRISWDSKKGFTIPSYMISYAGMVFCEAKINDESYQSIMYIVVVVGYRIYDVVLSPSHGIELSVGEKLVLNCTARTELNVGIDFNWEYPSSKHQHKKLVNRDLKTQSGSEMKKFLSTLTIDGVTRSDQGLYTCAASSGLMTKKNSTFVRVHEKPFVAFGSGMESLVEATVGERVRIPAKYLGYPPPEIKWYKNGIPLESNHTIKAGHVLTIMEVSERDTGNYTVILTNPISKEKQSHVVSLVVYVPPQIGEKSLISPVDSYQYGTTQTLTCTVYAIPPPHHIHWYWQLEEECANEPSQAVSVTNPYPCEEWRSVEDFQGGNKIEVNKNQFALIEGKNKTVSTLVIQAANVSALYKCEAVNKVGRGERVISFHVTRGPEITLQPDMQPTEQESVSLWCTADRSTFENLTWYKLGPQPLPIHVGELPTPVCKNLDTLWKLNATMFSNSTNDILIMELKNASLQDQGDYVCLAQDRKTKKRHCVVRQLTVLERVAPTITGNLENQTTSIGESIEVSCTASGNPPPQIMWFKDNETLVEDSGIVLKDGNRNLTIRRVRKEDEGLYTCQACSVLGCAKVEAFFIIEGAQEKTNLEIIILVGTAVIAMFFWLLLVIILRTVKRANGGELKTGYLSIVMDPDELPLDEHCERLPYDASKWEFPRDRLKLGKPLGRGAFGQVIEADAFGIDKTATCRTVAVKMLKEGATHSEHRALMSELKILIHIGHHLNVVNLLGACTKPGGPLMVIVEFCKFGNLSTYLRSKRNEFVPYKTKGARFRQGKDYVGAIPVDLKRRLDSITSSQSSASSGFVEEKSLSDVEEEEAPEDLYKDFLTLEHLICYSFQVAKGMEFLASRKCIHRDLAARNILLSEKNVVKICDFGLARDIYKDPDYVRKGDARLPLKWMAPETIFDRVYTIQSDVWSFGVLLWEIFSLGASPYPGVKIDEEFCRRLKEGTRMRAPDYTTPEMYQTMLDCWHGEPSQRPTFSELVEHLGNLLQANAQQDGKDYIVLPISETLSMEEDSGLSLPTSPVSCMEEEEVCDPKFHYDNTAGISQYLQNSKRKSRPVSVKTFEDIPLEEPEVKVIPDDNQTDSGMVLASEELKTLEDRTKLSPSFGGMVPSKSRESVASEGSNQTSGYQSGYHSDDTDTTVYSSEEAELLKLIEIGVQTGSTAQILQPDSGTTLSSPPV

Molecular target: KDR (VEGFR2) (Homo sapiens (Human), UniProt P35968)
Assay: SelectScreen Z'-LYTE kinase assay, Assay 540 for KDR (VEGFR2)
Format: biochemical

SMILES: COc1ccc(COc2ncc(Oc3ccc4c(=O)c5cc(C)cc(OCCN(C)C)c5oc4c3)cc2OC)cc1 [Example 12, 4-(2-(Dimethylamino)ethoxy)-6-((5-methoxy-6-((4-methoxybenzyl)oxy)pyridin-3-yl)oxy)-2-methyl-9H-xanthen-9-one]
- IC50: > 10 µM
